{
  "source": "patent US20040013631A1",
  "about": "“Skin care cosmetic compositions containing carboxyalkylates of branched alcohols and/or alkoxylates thereof” (Unilever Home & Personal Care USA, Division of Conopco, priority 2002, published 2004)",
  "tested_on": "human sebocytes",
  "assay": "Inhibition of sebocyte lipogenesis (14C-acetate label remaining in sebocytes)",
  "assay_type": "cell-based",
  "data": [
    {"substance": "C13 isoalcohol carboxyethylate (TDCE) [Compound 1]", "values": [
      {"measurement": "effectiveness in inhibition of lipogenesis relative to TDCM", "setting": "comparison of the data in Table 2", "value": "almost twice as effective as TDCM"},
      {"measurement": "activity as sebum suppressant relative to the branched alcohol from which it is derived", "setting": "ratio of IC50 values of Table 3", "value": "about 20 times"}
    ]}
  ]
}
